Reference: patent US20260207704A1, “STAPLED PEPTIDES AND METHODS THEREOF” (priority 2022, published 2026)

Amino acid sequences for entries named in this document (tags omitted).
UniProt P35222, whole entry: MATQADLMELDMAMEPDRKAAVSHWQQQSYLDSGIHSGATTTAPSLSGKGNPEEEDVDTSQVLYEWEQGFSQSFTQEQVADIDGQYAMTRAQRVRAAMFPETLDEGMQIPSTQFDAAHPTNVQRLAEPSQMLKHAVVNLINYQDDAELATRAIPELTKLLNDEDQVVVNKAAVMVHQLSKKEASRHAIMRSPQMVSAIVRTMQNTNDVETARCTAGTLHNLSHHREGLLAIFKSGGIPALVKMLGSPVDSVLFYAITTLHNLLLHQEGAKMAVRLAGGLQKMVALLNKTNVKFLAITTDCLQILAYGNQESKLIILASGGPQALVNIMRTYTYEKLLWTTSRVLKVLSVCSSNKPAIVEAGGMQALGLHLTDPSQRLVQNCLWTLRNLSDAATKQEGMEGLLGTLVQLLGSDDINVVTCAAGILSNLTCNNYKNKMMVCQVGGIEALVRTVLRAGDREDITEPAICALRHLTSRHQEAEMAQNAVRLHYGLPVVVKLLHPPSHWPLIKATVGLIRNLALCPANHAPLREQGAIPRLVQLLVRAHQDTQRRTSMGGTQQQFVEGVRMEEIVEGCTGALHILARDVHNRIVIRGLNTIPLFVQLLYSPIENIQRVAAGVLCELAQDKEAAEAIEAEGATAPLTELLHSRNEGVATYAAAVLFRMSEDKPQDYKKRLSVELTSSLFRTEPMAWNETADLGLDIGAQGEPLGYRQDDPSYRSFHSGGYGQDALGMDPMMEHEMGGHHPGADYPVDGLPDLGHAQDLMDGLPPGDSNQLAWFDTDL

Assays:
beta-catenin/TCF4 = molecular target: T1, beta-catenin/TCF4 (Homo sapiens, UniProt P35222); experiment: Nano-BRET target engagement assay (HEK293 cells); assay type: cell-based
T1 construct: expressed in transfected cells; host or cells: HEK293 cells

beta-catenin = beta-catenin (Homo sapiens, UniProt P35222); experiment: fluorescence polarization binding to beta-catenin; settings: beta-Catenin FP IC50 (nM)

| Compound | IC50 (beta-catenin/TCF4) [µM] | IC50 (beta-catenin) [nM] |
| --- | --- | --- |
| CCNC(=O)[C@H](CO)NC(=O)[C@H](CCCN1CCOCC1)NC(=O)[C@@H]1CCC(=O)NCCCC[C@@H]2NC(=O)[C@H](Cc3ccccc3)NC(=O)[C@H](C)NC(=O)C(C)(C)NC(=O)[C@H](Cc3cccc(C(=O)O)c3)NC(=O)[C@H](CC(=O)O)NC(=O)C3(CCCC=CCCCOC(=O)N4CC[C@@](C4)(NC2=O)C(=O)N[C@@H](Cc2ccccc2C(F)(F)F)C(=O)N[C@@H](Cc2csc4ccccc24)C(=O)N1)CCCC=CC[C@]1(CCCN1C(C)=O)C(=O)N[C@@H](CC(=O)O)C(=O)N[C@@H](CC(C)(C)C)C(=O)N3 (relative stereo) [I-229, Ac-PL3-Asp-Npg-B5-Asp-3COOHF-Aib-Ala-Phe-Lys*3-PyrS2-2F3MeF-BztA-GlnR*3-MorphNva-Ser-NHEt] | > 10 | < 50 |
| CC(=O)N1CCC[C@]12CC=CCCCC1(CCCC=CCCCOC(=O)N3CC[C@@]4(C3)NC(=O)[C@H](CCCCNC(=O)CC[C@@H](C(=O)N[C@@H](C)C(N)=O)NC(=O)[C@H](Cc3csc5ccccc35)NC(=O)[C@H](Cc3ccsc3)NC4=O)NC(=O)[C@H](Cc3ccccc3)NC(=O)[C@H](C)NC(=O)C(C)(C)NC(=O)[C@H](Cn3cc(CC(C)(C)C(=O)O)nn3)NC(=O)[C@H](CC(=O)O)NC1=O)NC(=O)[C@H](CC(C)(C)C)NC(=O)[C@H](CC(N)=O)NC2=O (relative stereo) [I-315, Ac-PL3-Asn-Npg-B5-Asp-[CH2CMe2CO2H]TriAzDap-Aib-Ala-Phe-Lys*3-PyrS2-3Thi-BztA-GlnR*3-Ala-NH2] | 3 to 10 | < 50 |
| CC(=O)N1CCC[C@]12CC=CCCCC1(CCCC=CCCCOC(=O)N3CC[C@@]4(C3)NC(=O)[C@H](CCCCNC(=O)CC[C@@H](C(=O)N[C@@H](C)C(N)=O)NC(=O)[C@H](Cc3csc5ccccc35)NC(=O)[C@H](Cc3ccsc3)NC4=O)NC(=O)[C@H](Cc3ccccc3)NC(=O)[C@H](C)NC(=O)[C@H](CCC(=O)N3CCOCC3)NC(=O)[C@H](Cn3cc(CC(C)(C)C(=O)O)nn3)NC(=O)[C@H](CC(=O)O)NC1=O)NC(=O)[C@H](CC(C)(C)C)NC(=O)[C@H](CC(N)=O)NC2=O (relative stereo) [I-319, Ac-PL3-Asn-Npg-B5-Asp-[CH2CMe2CO2H]TriAzDap-MorphGln-Ala-Phe-Lys*3-PyrS2-3Thi-BztA-GlnR*3-Ala-NH2] | > 10 | < 50 |
| COc1ccccc1C[C@@H]1NC(=O)[C@]23CCN(C2)C(=O)OCCCC=CCCCC2(CCCC=CC[C@]4(CCCN4C(C)=O)C(=O)N[C@@H](CC(=O)O)C(=O)N[C@@H](CC(C)(C)C)C(=O)N2)C(=O)N[C@@H](CC(=O)O)C(=O)N[C@@H](Cc2cccc(C(=O)O)c2)C(=O)NC(C)(C)C(=O)N[C@@H](C)C(=O)N[C@@H](Cc2ccccc2)C(=O)N[C@@H](CCCCNC(=O)CC[C@@H](C(=O)N[C@@H](C)C(N)=O)NC(=O)[C@H](Cc2csc4ccccc24)NC1=O)C(=O)N3 (relative stereo) [I-293, Ac-PL3-Asp-Npg-B5-Asp-3COOHF-Aib-Ala-Phe-Lys*3-PyrS2-20MeF-BztA-GlnR*3-Ala-NH2] | 1.5 to 3 | < 50 |
| CC(=O)N1CCC[C@]12CC=CCCCC1(CCCC=CCCCOC(=O)N3CC[C@@]4(C3)NC(=O)[C@H](CCCCNC(=O)CC[C@@H](C(=O)N[C@@H](C)C(N)=O)NC(=O)[C@H](Cc3csc5ccccc35)NC(=O)[C@H](Cc3ccsc3)NC4=O)NC(=O)[C@H](Cc3ccccc3)NC(=O)[C@H](C)NC(=O)[C@H](CCC(=O)N3CCOCC3)NC(=O)[C@H](Cn3cc(CC(C)(C)C(=O)O)nn3)NC(=O)[C@H](CC(N)=O)NC1=O)NC(=O)[C@H](CC(C)(C)C)NC(=O)[C@H](CC(=O)O)NC2=O (relative stereo) [I-322, Ac-PL3-Asp-Npg-B5-Asn-[CH2CMe2CO2H]TriAzDap-MorphGln-Ala-Phe-Lys*3-PyrS2-3Thi-BztA-GlnR*3-Ala-NH2] | 3 to 10 | < 50 |
| CCNC(=O)[C@H](CCCN1CCOCC1)NC(=O)[C@@H]1CCC(=O)NCCCC[C@@H]2NC(=O)[C@H](Cc3ccccc3)NC(=O)[C@H](C)NC(=O)C(C)(C)NC(=O)[C@H](Cc3cccc(C(=O)O)c3)NC(=O)[C@H](CC(=O)O)NC(=O)C3(CCCC=CCCCOC(=O)N4CC[C@@](C4)(NC2=O)C(=O)N[C@@H](Cc2ccccc2C(F)(F)F)C(=O)N[C@@H](Cc2csc4ccccc24)C(=O)N1)CCCC=CC[C@]1(CCCN1C(C)=O)C(=O)N[C@@H](CC(=O)O)C(=O)N[C@@H](CC(C)(C)C)C(=O)N3 (relative stereo) [I-228, Ac-PL3-Asp-Npg-B5-Asp-3COOHF-Aib-Ala-Phe-Lys*3-PyrS2-2F3MeF-BztA-GlnR*3-MorphNva-NHEt] | 3 to 10 | < 50 |
| CC(=O)N1CCC[C@]12CC=CCCCC1(CCCC=CCCCOC(=O)N3CC[C@@]4(C3)NC(=O)[C@H](CC(C)C)NC(=O)[C@H](Cc3ccccc3)NC(=O)[C@H](C)NC(=O)[C@H](CCCCNC(=O)c3ccccc3-c3ccccc3C(=O)NCCCC[C@@H](C(N)=O)NC(=O)[C@H](Cc3csc5ccccc35)NC(=O)[C@H](Cc3ccsc3)NC4=O)NC(=O)[C@H](Cc3cccc(C(=O)O)c3)NC(=O)[C@H](CC(=O)O)NC1=O)NC(=O)[C@H](CC(C)(C)C)NC(=O)[C@H](CC(=O)O)NC2=O (stereo partly drawn) [I-48, Ac-PL3-Asp-Npg-B5-Asp-3COOHF-[diphenate]-Lys-Ala-Phe-Leu-PyrS2-3Thi-BztA-Lys-NH2] | > 10 | < 50 |
| CC(=O)N1CCC[C@]12CC=CCCCC1(CCCC=CCCCOC(=O)N3CC[C@@]4(C3)NC(=O)[C@H](CC(C)C)NC(=O)[C@H](Cc3ccccc3)NC(=O)[C@H](C)NC(=O)[C@H](CCCCNC(=O)CCC(=O)NCCCC[C@@H](C(N)=O)NC(=O)[C@H](Cc3csc5ccccc35)NC(=O)[C@H](Cc3ccccc3Cl)NC4=O)NC(=O)[C@H](Cc3cccc(C(=O)O)c3)NC(=O)[C@H](CC(=O)O)NC1=O)NC(=O)[C@H](CC(C)(C)C)NC(=O)[C@H](CC(=O)O)NC2=O (stereo partly drawn) [I-51, Ac-PL3-Asp-Npg-B5-Asp-3COOHF-[succinate]-Lys-Ala-Phe-Leu-PyrS2-2ClF-BztA-Lys-NH2] | 3 to 10 | < 50 |
| CC(=O)N1CCC[C@]12CC=CCCCC1(CCCC=CCCCOC(=O)N3CC[C@@]4(C3)NC(=O)[C@H](CCCCNC(=O)CC[C@@H](C(=O)N[C@@H](CCCCNC(=O)CCOCCOCCOCCOCCOCCOCCOCCOCCNC(=O)CCCC[C@@H]3SC[C@@H]5NC(=O)N[C@@H]53)C(N)=O)NC(=O)[C@H](Cc3csc5ccccc35)NC(=O)[C@H](Cc3ccsc3)NC4=O)NC(=O)[C@H](Cc3ccccc3)NC(=O)[C@H](C)NC(=O)C(C)(C)NC(=O)[C@H](Cc3cccc(C(=O)O)c3)NC(=O)[C@H](CC(=O)O)NC1=O)NC(=O)[C@H](CC(C)(C)C)NC(=O)[C@H](CC(=O)O)NC2=O (relative stereo) [I-517, Ac-PL3-Asp-Npg-B5-Asp-3COOHF-Aib-Ala-Phe-Lys*3-PyrS2-3Thi-BztA-GlnR*3-[BiotinPEG8]Lys-NH2] | > 10 | < 50 |
| CC(=O)N1CCC[C@]12CC=CCCCC13CCCC=CCCCOC(=O)N4CC[C@@]5(C4)NC(=O)[C@H](CCCCNC(=O)CC[C@@H](C(=O)N[C@@H](C)C(N)=O)NC(=O)[C@H](Cc4csc6ccccc46)NC(=O)[C@H](Cc4ccccc4C(F)(F)F)NC5=O)NC(=O)[C@H](Cc4ccccc4)NC(=O)[C@H](C)NC(=O)[C@H](CCCCNC(=O)CC[C@H](NC(=O)[C@H](CC(=O)O)NC2=O)C(=O)N1)NC(=O)[C@H](Cc1cccc(C(=O)O)c1)NC(=O)[C@H](CC(=O)O)NC3=O (relative stereo) [I-75, Ac-PL3-Asp-GlnR**3-B5-Asp-3COOHF-Lys**3-Ala-Phe-Lys*3-PyrS2-2F3MeF-BztA-GlnR*3-Ala-NH2] | > 10 | < 50 |
| CC(=O)N1CCC[C@]12CC=CCCCC1(CCCC=CCCCOC(=O)N3CC[C@@]4(C3)NC(=O)[C@H](CC(C)C)NC(=O)[C@H](Cc3ccccc3)NC(=O)[C@H](C)NC(=O)[C@H](CCC(=O)N3CCCC5(CCN(CC5)C(=O)CC[C@@H](C(=O)N[C@@H](C)C(N)=O)NC(=O)[C@H](Cc5csc6ccccc56)NC(=O)[C@H](Cc5ccccc5C(F)(F)F)NC4=O)C3)NC(=O)[C@H](Cc3cccc(C(=O)O)c3)NC(=O)[C@H](CC(=O)O)NC1=O)NC(=O)[C@H](CC(C)(C)C)NC(=O)[C@H](CC(=O)O)NC2=O (stereo partly drawn) [I-132, Ac-PL3-Asp-Npg-B5-Asp-3COOHF-[29N2spiroundecane]GlnR-Ala-Phe-Leu-PyrS2-2F3MeF-BztA-GlnR-Ala-NH2] | > 10 | 50 to 200 |
| CC(=O)N1CCC[C@]12CC=CCCCC1(CCCC=CCCCOC(=O)N3CC[C@@]4(C3)NC(=O)[C@H](CCCCNC(=O)CC[C@@H](C(=O)N[C@@H](C)C(N)=O)NC(=O)[C@H](Cc3csc5ccccc35)NC(=O)[C@H](Cc3ccsc3)NC4=O)NC(=O)[C@H](Cc3ccccc3)NC(=O)[C@H](C)NC(=O)[C@H](CCC(=O)N3CCOCC3)NC(=O)[C@H](Cn3cc(CC(C)(C)C(=O)O)nn3)NC(=O)[C@H](CC(=O)O)NC1=O)NC(=O)[C@H](CC(C)(C)C)NC(=O)[C@H](CO)NC2=O (relative stereo) [I-320, Ac-PL3-Ser-Npg-B5-Asp-[CH2CMe2CO2H]TriAzDap-MorphGln-Ala-Phe-Lys*3-PyrS2-3Thi-BztA-GlnR*3-Ala-NH2] | > 10 | 50 to 200 |
| CC(=O)N1CCC[C@]12CC=CCCCC1(CCCC=CCCCOC(=O)N3CC[C@@]4(C3)NC(=O)[C@H](CC(C)C)NC(=O)[C@H](Cc3ccccc3)NC(=O)[C@H](C)NC(=O)[C@H](CCCCNC(=O)c3cccc(c3)C(=O)NCCCC[C@@H](C(N)=O)NC(=O)[C@H](Cc3csc5ccccc35)NC(=O)[C@H](Cc3ccsc3)NC4=O)NC(=O)[C@H](Cc3cccc(C(=O)O)c3)NC(=O)[C@H](CC(=O)O)NC1=O)NC(=O)[C@H](CC(C)(C)C)NC(=O)[C@H](CC(=O)O)NC2=O (stereo partly drawn) [I-45, Ac-PL3-Asp-Npg-B5-Asp-3COOHF-[isophthalate]-Lys-Ala-Phe-Leu-PyrS2-3Thi-BztA-Lys-NH2] | > 10 | < 50 |
| CC(=O)N1CCC[C@]12CC=CCCCC1(CCCC=CCCCOC(=O)N3CC[C@@]4(C3)NC(=O)[C@H](CCCCNC(=O)CC[C@@H](C(=O)N[C@@H](CCCN3CCOCC3)C(=O)NC(CO)CO)NC(=O)[C@H](Cc3csc5ccccc35)NC(=O)[C@H](Cc3ccccc3C(F)(F)F)NC4=O)NC(=O)[C@H](Cc3ccccc3)NC(=O)[C@H](C)NC(=O)C(C)(C)NC(=O)[C@H](Cc3cccc(C(=O)O)c3)NC(=O)[C@H](CC(=O)O)NC1=O)NC(=O)[C@H](CC(C)(C)C)NC(=O)[C@H](CC(=O)O)NC2=O (relative stereo) [I-224, Ac-PL3-Asp-Npg-B5-Asp-3COOHF-Aib-Ala-Phe-Lys*3-PyrS2-2F3MeF-BztA-GlnR*3-MorphNva-Serol] | > 10 | < 50 |
